Assay: Solubility
Type: physicochemical

For “2-(3-Benzo[b]furyl)-6,7-methylenedioxyquinolin-4-one [Compound 37]”, the Solubility was “reasonable solubility”.

From paper PMC2761767 (Journal of medicinal chemistry, 2009)
